{
  "source": "ChEMBL document CHEMBL1155284",
  "about": "“Synthesis and antibacterial activity of some new thiadiaza/triazaphospholes, thiadiaza/triaza/tetrazaphosphinines and thiadiaza/tetrazaphosphepines containing 1,2,4-triazinone moiety” (Eur J Med Chem, 2009)",
  "tested_on": "Artemia salina",
  "experiment": "Toxicity against Artemia salina larvae after 24 hrs",
  "format": "organism-based",
  "settings": "in vivo",
  "outline": "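Brine shrimp lethality test. Artemia salina eggs were hatched 48 h at 37 °C in filtered sea salt solution (38 g/L) with constant oxygen to give nauplii. Stock was 10 mg compound in 2 mL DMSO, diluted to 80, 40, 20, 10 and 5 µg/mL in triplicate vials, about 10 nauplii each, with a DMSO control. LC50 is the mean of three values.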",
  "data": [
    {"smiles": "CCOP1(=O)C(C)NN=C2N(N)C(=O)C(C)=NN21", "note": "(stereo unspecified)", "values": [
      {"measurement": "LC50", "result": 25.9, "unit": "µg/mL"}
    ]}
  ]
}
